Source: patent US6693189B2, “Materials and method for treating or preventing pathogenic fungal infection” (Ariad Gene Therapeutics, Inc., priority 1996, dated 2004)

Chains of the proteins cited; added tags and fusions are not shown.
UniProt P62942, whole entry: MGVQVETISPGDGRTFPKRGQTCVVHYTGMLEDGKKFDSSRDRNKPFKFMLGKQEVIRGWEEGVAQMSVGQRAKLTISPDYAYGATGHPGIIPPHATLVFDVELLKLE

Molecular target: human FKBP12 (Homo sapiens, UniProt P62942)
Experiment: competitive fluorescence polarization (FP) FKBP binding assay
Details: =IC50/IC50 of rapamycin; C24 oximes

fold loss in affinity (vs rapamycin): 616
Compound: CON=C1CC(C(C)CC2CCC(O)C(OC)C2)OC(=O)C2CCCCN2C(=O)C(=O)C2(O)OC(CCC2C)CC(OC)C(C)=CC=CC=CC(C)CC(C)C(=O)C(OC)C(O)C(C)=CC1C (stereo not shown) [Compound 5, Rapamycin (E and Z)-24-(O-methyloxime)]
